# Reference: publication PMC3401593 (2009)
# Sequences of proteins named here, by UniProt entry; tags and fusion partners are left off.
# UniProt P08183, whole entry: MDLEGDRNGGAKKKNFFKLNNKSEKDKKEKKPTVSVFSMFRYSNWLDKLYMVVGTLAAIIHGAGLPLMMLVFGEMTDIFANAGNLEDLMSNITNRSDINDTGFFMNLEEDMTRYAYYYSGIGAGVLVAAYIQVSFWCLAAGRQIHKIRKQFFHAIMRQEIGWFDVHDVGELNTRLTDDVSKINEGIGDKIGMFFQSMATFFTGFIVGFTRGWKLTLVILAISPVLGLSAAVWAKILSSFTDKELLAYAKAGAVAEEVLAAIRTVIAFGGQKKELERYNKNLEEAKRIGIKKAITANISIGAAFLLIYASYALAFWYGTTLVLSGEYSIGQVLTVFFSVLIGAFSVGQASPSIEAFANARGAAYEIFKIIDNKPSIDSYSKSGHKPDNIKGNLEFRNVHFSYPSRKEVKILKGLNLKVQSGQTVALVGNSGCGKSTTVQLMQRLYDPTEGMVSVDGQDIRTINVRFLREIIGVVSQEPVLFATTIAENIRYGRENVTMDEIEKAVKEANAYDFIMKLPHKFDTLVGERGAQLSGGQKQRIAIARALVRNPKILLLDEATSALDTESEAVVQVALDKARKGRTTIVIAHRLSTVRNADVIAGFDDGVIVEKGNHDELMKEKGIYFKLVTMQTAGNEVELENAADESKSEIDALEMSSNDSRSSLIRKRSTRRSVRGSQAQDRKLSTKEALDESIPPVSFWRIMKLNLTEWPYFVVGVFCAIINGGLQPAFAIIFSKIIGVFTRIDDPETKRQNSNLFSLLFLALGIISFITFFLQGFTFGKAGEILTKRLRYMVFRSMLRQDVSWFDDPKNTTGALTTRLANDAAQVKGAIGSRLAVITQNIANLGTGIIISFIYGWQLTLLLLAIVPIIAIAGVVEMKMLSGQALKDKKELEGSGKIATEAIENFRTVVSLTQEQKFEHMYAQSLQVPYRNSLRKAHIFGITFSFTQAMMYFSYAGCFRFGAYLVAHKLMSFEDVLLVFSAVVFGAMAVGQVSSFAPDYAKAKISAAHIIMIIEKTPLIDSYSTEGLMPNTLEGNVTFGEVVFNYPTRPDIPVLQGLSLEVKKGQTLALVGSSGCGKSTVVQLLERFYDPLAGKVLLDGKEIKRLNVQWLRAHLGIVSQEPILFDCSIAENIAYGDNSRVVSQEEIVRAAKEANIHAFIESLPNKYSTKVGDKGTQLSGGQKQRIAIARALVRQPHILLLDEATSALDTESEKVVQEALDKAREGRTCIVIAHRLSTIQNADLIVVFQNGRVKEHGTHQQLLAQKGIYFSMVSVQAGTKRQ
# How the values were obtained:
# recombinant human P-gp = recombinant human P-gp (Homo sapiens, UniProt P08183)
# [1] = mouse, sc
# [2] = rats, cited from earlier work
substance,measurement,setting,value
buprenorphine,Rates of ATP consumption or fold stimulation of basal P-gp ATPase activity versus control,recombinant human P-gp,no statistically significant differences
same,"Effect of genetic disruption of P-gp on distribution to the brain, liver, or kidney",[1],no statistically significant effect
same,Enhancement of the apparent brain uptake,"[2]; with cyclosporin A, quinidine, […]",~ 1.5 fold
same,Enhancement of the apparent brain uptake,[2]; with vinblastin and vincristine,no detectable enhancement

# Where two headings read alike, the source gives them in different places.
